Emax data for one compound are collected here from ChEMBL document CHEMBL1148695, “Synthesis and biological activity of nociceptin/orphanin FQ analogues substituted in position 7 or 11 with Calpha,alpha-dialkylated amino acids” (Bioorg Med Chem, 2007).

Protein sequences, listed by entry. Tags and fused reporters are not part of them. Lines headed by an entry give the natural chain unless they say otherwise; changes in a name come on top.
UniProt P35377: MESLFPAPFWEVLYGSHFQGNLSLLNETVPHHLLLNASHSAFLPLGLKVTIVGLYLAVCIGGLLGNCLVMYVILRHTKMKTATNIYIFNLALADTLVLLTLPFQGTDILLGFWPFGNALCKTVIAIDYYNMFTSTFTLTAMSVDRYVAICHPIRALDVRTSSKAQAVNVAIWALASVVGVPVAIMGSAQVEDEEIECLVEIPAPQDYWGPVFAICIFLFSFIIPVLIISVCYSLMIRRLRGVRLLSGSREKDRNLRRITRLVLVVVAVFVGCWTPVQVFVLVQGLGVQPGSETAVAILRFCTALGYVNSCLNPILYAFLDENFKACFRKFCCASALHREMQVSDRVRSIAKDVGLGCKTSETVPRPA

This assay deals with Nociceptin receptor (Mus musculus) (UniProt P35377). Nature of the assay: Agonist activity at NOP receptor in Swiss mouse vas deferens assessed as effect on electrically stimulated contractions. In kind it is functional, tissue-based.

Turning to `CC(C)C[C@H](NC(=O)[C@H](CCCCN)NC(=O)[C@H](CCCNC(=N)N)NC(=O)[C@H](C)NC(=O)[C@H](CO)NC(=O)[C@H](CCCCN)NC(=O)[C@H](CCCNC(=N)N)NC(=O)[C@H](C)NC(=O)CNC(=O)[C@@H](NC(=O)[C@H](Cc1ccccc1)NC(=O)CNC(=O)CNC(=O)[C@@H](N)Cc1ccccc1)[C@@H](C)O)C(=O)N[C@@H](C)C(=O)N[C@@H](CC(N)=O)C(=O)N[C@@H](CCC(N)=O)C(N)=O`, the maximal response (Emax) is 93%.
